Earlier results, collected in patent publication US7326685B2, “Diagnostic or therapeutic somatostatin or bombesin analog conjugates and uses thereof” (The Administrators of the Tulane Educational Fund, priority 2001, dated 2008).

Conditions: in vivo; cited from earlier work

mitomycin C
MTD: 20 mg/m^2
